The numbers were not newly measured in US12233205B2, “Thermal modulation of an inhalable medicament” (priority 2014, dated 2025), which cites them from elsewhere.

For the data set the following is noted: in vivo, im.

On to “Interferon alfa 2b: listed among biosimilar molecules suitable for delivery with the device”, for which the bioavailability is reported as 80-90%.
